The list shows a part of the results, in another mix than the full data. Activity calls are given as the source filed them.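 How the source made its calls: active means growth inhibition above a set limit, 3 SD over mean compound inhibition, in both replicates (cut at about 43% in these data); inconclusive means above the limit in only one replicate; inactive means at or below the limit in both replicates.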
Assay: Restrictive medium S. cerevisiae growth inhibition, OD615, pilot screen of yeast lifespan reduction project, restrictive growth control (AID 706);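 further: modified DeaD lifespan yeast strain shifted to restrictive glucose medium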
Conditions: OD615, 48 h, at 10 µM, stronger effect = higher value
Procedure, shortened: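 System: Engineered S. cerevisiae DeaD strain | Detection: OD615 | Buffer or medium: CSMM-D glucose medium | Doses: 10 µM compound, 0.25% DMSO | Timing: 4 h pre-growth plus 48 h compound exposure, 30 °C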
For Cc1ccc(C)c(NP(C)(=O)Oc2ccccc2)c1 (stereo not given), the growth inhibition was inactive: -16.2%.
In the case of CP(=O)(NC(=O)Nc1ccccc1)Oc1ccccc1 (stereo not given), the growth inhibition is reported as inactive: -15.4%.
With Cc1ccc(NP(C)(=O)Oc2ccccc2)c(C)c1 (stereo not given) the growth inhibition was inactive: -1.1%.
In the case of CP(=O)(Oc1ccccc1)N1CCOC1=O (stereo not given), the growth inhibition is reported as inactive: -16.2%.
For CP(=O)(Nc1ccc2c(c1)OCCO2)Oc1ccccc1 (stereo not given), the growth inhibition was inactive: -2.07%.

Source: PubChem BioAssay AID706 (SRMLSC, 2007)
